The results in this text go back to paper PMC12501029, “Discovery of a CNS active GSK3 degrader using orthogonally reactive linker screening” (Nature Communications, 2025).

Data set [1] in a line: Cassette PK study with 22, 25 and 26. The note with it: i.v. bolus cassette 0.5 mg/kg. From the text:
Fifteen female mice of the Balb/c strain were obtained from Charles River Laboratories, UK. Animals were maintained under a 12-h light/12-h dark cycle, in Thoren mouse caging containing EC0 aspen bedding (DBM, UK), with 'Sizzlenest' and 'Rodent Rolls' nesting material (DBM). Enrichment materials included aspen chew sticks, cardboard houses, tunnels, swings, and sunflower seeds. All animals had ad libitum access to food (5LF2 Extruded Diet, IPS Ltd, UK) and tap water throughout. Temperature and relative humidity were maintained between 19 °C–24 °C and 45%–65%, respectively. All animals received a minimum of 10 days of acclimatisation prior to the start of the study.
The cassette formulation (22, 25 and 26) was prepared by producing separate stock solutions of each compound dissolved in DMSO (dimethyl sulfoxide) at a concentration of 6 mg/mL. Aliquots of each stock solution were combined in equal parts to produce a stock solution containing 2 mg/mL of each compound. This solution was then diluted with Polyethylene glycol 400 (PEG400), followed by drop-wise addition of sterile water. The final formulation consisted of 5% DMSO, 40% PEG400, and 55% water, and contained 0.1 mg/mL of each compound. For the cassette PK study, three female Balb/c mice were dosed via a bolus intravenous injection at a dose level of 0.5 mg/kg per compound (5 mL/kg). Serial blood samples (10 µL per sample) were collected from the lateral tail vein of each mouse at 5, 15 and 30 min, 1, 2, 4, 6, 8, and 24 h after dose administration. All blood samples were diluted into 90 µL of Milli‑Q ultrapure water and stored at −20 °C prior to bioanalysis. The concentration of 22, 25 and 26 in blood and brain was determined by UPLC-MS/MS. […]
For study samples, a volume (30 µL) was mixed (vortexed) with a volume (90 µL) of acetonitrile to precipitate proteins. […] Supernatant from study samples (80 µL) and calibration samples, QCs, blanks, and double blanks (200 µL) were then transferred to HPLC glass vials containing Milli-Q water (40 µL or 100 µL, respectively), ready for LCMS analysis.

Data set [2] can be described thus: Intrinsic clearance (Cli), mouse liver microsomes. The note with it: 0.5 µM, scaling factor 48 mg microsomal protein per g liver. The method, then:
(§1) Test compound (0.5 µM) was incubated with female CD1 mouse, male rat Han Wistar and pooled human liver microsomes (Xenotech^TM; 0.5 mg/mL 50 mM potassium phosphate buffer, pH7.4) and the reaction started with addition of excess NADPH (8 mg/mL 50 mM potassium phosphate buffer, pH7.4). Immediately, at time zero, then at 3, 6, 9, 15 and 30 min an aliquot (50 µL) of the incubation mixture was removed and mixed with acetonitrile (100 uL) to stop the reaction. An internal standard was added to all samples, the samples centrifuged to sediment precipitated protein and the plates then sealed prior to UPLC-MSMS analysis (Xevo TQ-S Micro, Waters^TM). XLfit (IDBS, UK) was used to calculate the exponential decay and consequently the rate constant (k) from the ratio of peak area of test compound to internal standard at each timepoint. The rate of intrinsic clearance (CLi) of each test compound was then calculated using the following calculation:1 CLi(mL/min/gliver)=kxVxMicrosomalproteinyield Where V (mL/mg protein) is the incubation volume/mg protein added and microsomal protein yield is taken as 48 mg, 46 mg and 40 mg protein/g liver for mouse, rat and human, respectively. Verapamil (0.5 µM) was used as a positive control to confirm acceptable assay performance.

Data set [3] is described as follows: Intrinsic clearance (Cli), human liver microsomes. The note with it: 0.5 µM, scaling factor 40 mg microsomal protein per g liver. The method, then:
as §1

Data set [4] in a line: RealSOL kinetic solubility. The note with it: PBS pH 7.4, 24 h, 25 °C. The method, then:
Solubility was assessed using an 'in-house' developed method known as 'RealSOL'. This solubility method measures the solubility in physiological strength phosphate buffered saline starting from 10 mM DMSO solutions of the test compounds. Although a 'kinetic'^[1] solubility method, the long shaking times appears to give solubility values that reflect more closely those made from solid samples when compared to a previous nephelometric method (unpublished in-house data).
Test compounds were dissolved in DMSO to give 10 mM solutions. Solubility test samples were prepared by adding a volume (5 µL) of the 10 mM solution to a volume (195 µL) of phosphate buffered saline, pH 7.4 (Sigma-Aldrich, Cat no. P4417, made as per manufacturer’s instructions). This solution was then mixed for 24 h (rotary mixing, 900 rpm, 25 °C) excluding light.
After mixing, the solubility test samples were filtered to remove any undissolved material using a proprietary filter (Millipore Multiscreen HTS filter, 96-well format). Samples were drawn through the filter using a vacuum.
The filtrate from the above was analysed for dissolved drug compound using a truncated UHPLC methodology. A Shimadzu Nexera X2 UHPLC system was used, with a reversed-phase column and a simple formic acid gradient elution. The UHPLC parameters are shown in Supporting Information Table 5. […]

A short description of data set [5]: Brain binding, equilibrium dialysis. Particulars: 10 μg/mL, 5 h dialysis. The protocol:
As for plasma protein binding experiments, 96-well equilibrium dialysis apparatus was used to determine the free fraction in brain tissue homogenate for each compound (HT Dialysis LLC, Gales Ferry, CT). Membranes (12–14 kDA cut-off) were conditioned in deionised water for 60 min, followed by conditioning in 80:20 deionised water: ethanol for 20 min, and then rinsed in isotonic buffer before use. Frozen brain tissue was thawed and homogenised in artificial CSF at a ratio of 3:1. Homogenate was then spiked with test compound (final concentration 10 μg/mL), and 150 μL aliquots (n = 6 replicate determinations) loaded into the 96-well equilibrium dialysis plate. Dialysis vs artificial CSF was carried out for 5 h in a temperature-controlled incubator at ca. 37 °C (Barworld Scientific Ltd, UK) using an orbital microplate shaker at 100 revolutions/minute (Barworld Scientific Ltd, UK). […] All samples were analysed by UPLC-MS/MS. The unbound fraction was determined as the ratio of the peak area in buffer to that in homogenate using the following equation:2 Afu=Buffer/Matrix where Afu means apparent fraction unbound […]
The recovery of the dialysed samples was calculated by comparing the sum of the peak areas (buffer and matrix) of any test compound at 37 °C to that of the same compound at 4 °C. […]

Data set [6] is described as follows: Intrinsic clearance (Cli), rat liver microsomes. The note with it: 0.5 µM, scaling factor 46 mg microsomal protein per g liver. The method, then: as §1

SMILES strings stand for the structures.

Turning to `Cn1nc(N2CCC(=O)NC2=O)c2ccc(CN3CCN(CCCCCc4cn(-c5ccc(-c6cn7nccc(C(=O)Nc8cnccc8N8CCOCC8)c7n6)cc5)nn4)CC3)cc21`, in data set [1], the Half_Life turned out to be 1.0 h and the Vss_obs was determined as 1.1 L/kg. Moreover, the AUC0-last in data set [1] (whole blood) came out at 18499 ng·min/mL. Further, the “Scaled Microsomal Stability MuClint” value in data set [2] worked out at 17 ml/min/g liver. Besides, in data set [3], the “Scaled Microsomal Stability HuClint” value is 6.4 ml/min/g liver. Further, in data set [4], the RealSol is less than 1 µM. The Brain Tissue Binding (Fu) in data set [5] is 0.0076. In addition, the “Scaled Microsomal Stability RatClint” value in data set [6] was found to be 2.4 ml/min/g liver.
